For one assay, the system named is GIST-T1 cells. Kind of assay: Western blot in gastrointestinal stromal tumor cells. The assay is classed as cell-based, human. As to conditions: GIST-T1, 24 hours. How it is done: For GIST-T1 cells protein lysates were prepared from cell line monolayers according to standard protocols as described in A. Duensing, F. Medeiros, B. McConarty, N. E. Joseph, D. Panigrahy, S. Singer, C. D. Fletcher, G. D. Demetri, J. A. Fletcher, Oncogene 2004, 23, 3999-4006. Protein concentrations were determined with the Bio-Rad Protein Assay (Bio-Rad Laboratories, Hercules, Calif.). Electrophoresis and immunoblotting were carried out as described in B. P. Rubin, S. Singer, C. Tsao, A. Duensing, M. L. Lux, R. Ruiz, M. K. Hibbard, C. J. Chen, S. Xiao, D. A. Tuveson, G. D. Demetri, C. D. Fletcher, J. A. Fletcher, Cancer Res. 2001, 61, 8118-8121. Changes in protein expression and phosphorylation as visualized by chemiluminescence were captured and quantified using a FUJI LAS3000 system with Science Lab 2001 ImageGauge 4.0 software (Fujifilm Medial Systems, Stamford Conn., USA).
Controls were treated with dimethyl sulfoxide (DMSO).

A further assay has as its system remaining 97 kinases. The note with it: 1 μM compound, apparent ATP KM.

The text below walks through data of patent US10550114B2, “Kinase inhibitors and their use in cancer therapy” (TECHNISCHE UNIVERSITÄT DORTMUND, priority 2015, dated 2020).

As to `C=CC(=O)Nc1ccc2[nH]c(=O)n(C3CCN(Cc4ccc(-c5nc6cc[nH]c(=O)c6cc5-c5ccccc5)cc4)CC3)c2c1` [Compound 1a, N-(2-oxo-3-(1-(4-(5-oxo-3-phenyl-5,6-dihydro-1,6-naphthyridin-2-yl)benzyl)piperidin-4-yl)-2,3-dihydro-1H-benzo[d]imidazol-5-yl) acrylamide], the “phosphorylation of c-KIT and MAPK (Erk1/2)” value in the assay on GIST-T1 cells is “not affected”. Besides, in the assay with remaining 97 kinases, the “% inhibition remaining 97 kinases” value is on record as “less than 40%”.
